Protein sequences, listed by entry. Tags and fused reporters are not part of them. Residues count along the entry.
UniProt Q2YDK3, 36-553 limits assumed: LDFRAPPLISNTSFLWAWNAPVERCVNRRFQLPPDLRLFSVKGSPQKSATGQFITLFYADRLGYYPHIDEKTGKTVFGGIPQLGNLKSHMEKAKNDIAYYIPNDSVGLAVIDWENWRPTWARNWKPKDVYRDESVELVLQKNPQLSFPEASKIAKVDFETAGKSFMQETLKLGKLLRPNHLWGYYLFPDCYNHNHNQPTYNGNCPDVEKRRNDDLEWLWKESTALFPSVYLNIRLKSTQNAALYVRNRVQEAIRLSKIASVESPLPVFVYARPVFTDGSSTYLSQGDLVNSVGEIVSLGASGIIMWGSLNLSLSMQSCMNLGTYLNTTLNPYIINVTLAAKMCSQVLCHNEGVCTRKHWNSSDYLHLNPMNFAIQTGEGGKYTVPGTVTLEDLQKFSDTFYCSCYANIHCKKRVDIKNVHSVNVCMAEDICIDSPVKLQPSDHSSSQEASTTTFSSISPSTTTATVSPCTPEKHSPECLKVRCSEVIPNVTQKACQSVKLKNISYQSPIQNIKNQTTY

According to paper PMC6745035, “Novel tetrahydroacridine derivatives with iodobenzoic moieties induce G0/G1 cell cycle arrest and apoptosis in A549 non-small lung cancer and HT-29 colorectal cancer cells” (Molecular and Cellular Biochemistry, 2019):

Columns and labels:
[1] = biological target: hyaluronidase from bovine testes Type I-S (Bos taurus, UniProt Q2YDK3); experiment: Hyaluronidase inhibition assay (turbidimetric); format: biochemical; conditions: read-out: HYAL IC50 ± SD
[2] = system: 253J B-V and 253J B-V cisplatin-resistant cells; experiment: Cytotoxicity on cisplatin-resistant and non-resistant 253J B-V cells; conditions: 24 h, 48 h, 72 h; IC50 of A549, IC50 of HT-29, 1/2IC50, 1/4IC50

## O=C(NCCCCNc1c2c(nc3ccccc13)CCCC2)c1cccc(I)c1 [Compound 1f]
[1]
  IC50: 384 µM
[2]
  Cytotoxic effect on cisplatin-resistant versus non-resistant 253J B-V cells (in words): resistant cells were more sensitive
